Results from article PMC9509318 (Nature Communications, 2022).

Target: Pfs48/45-D3 (C-terminal 6-cys domain of Pfs48/45) (Plasmodium falciparum 3D7 …, UniProt Q8I6T1)
Assay: SPR
Details: both partners purified

B1: 85RF45.1 monoclonal antibody (antibody, V domains shown)
VH: EVQLVESGGGLLQPGRSLKLSCVASGFTFNNYWMSWIRQAPGKGLEWIASISNIGGTIYYPDSVKGRFTISRDSAQNTLYLQMNSLRSEDTATYYCTRDLRMSDYFDYWGQGVMVTVSS
VL: QFVLSQPNSVSTNLGSTVKLSCKRSTGNIGSNYVSWYQHHEGRSPTTMIYRDDQRPDGVPDRFSGSIDRSSNSALLTIDNVQTEDEAAYFCHSYSTGMYIFGGGTKLTVL
notes: source: hybridoma cell line, purified using protein A/G
Kd: 2.5 nM
